Assay results published in patent publication US20080085884A1, “Melanin Concentrating Hormone Receptor-1 Antagonist Pyridinones” (Pfizer Inc, priority 2006, published 2008).

Amino acid sequences for entries named in this document (tags omitted).
UniProt Q99705, whole entry: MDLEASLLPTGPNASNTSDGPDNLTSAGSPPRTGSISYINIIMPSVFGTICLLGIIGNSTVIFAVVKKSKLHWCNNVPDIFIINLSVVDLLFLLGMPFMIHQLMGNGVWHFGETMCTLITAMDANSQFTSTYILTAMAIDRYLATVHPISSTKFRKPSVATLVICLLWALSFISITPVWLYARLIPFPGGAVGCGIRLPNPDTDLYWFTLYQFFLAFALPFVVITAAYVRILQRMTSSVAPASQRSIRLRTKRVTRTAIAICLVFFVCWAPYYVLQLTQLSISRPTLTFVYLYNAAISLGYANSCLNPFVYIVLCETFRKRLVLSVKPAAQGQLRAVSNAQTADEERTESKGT

Each compound was assayed against human MCHR1 (Homo sapiens, UniProt Q99705) (assay: Cyclic AMP assay (MCHR-1 functional antagonism)). Conditions: read-out: MCHR-1 functional Ki; CHO cells stably expressing human MCHR1; cAMP accumulation with 25 uM forskolin and 0.2 nM MCH, 90 min; Ki from IC50 by Cheng-Prusoff.

| Ki [µM] | SMILES |
| --- | --- |
| 0.0476 | CC(C)(C)OC(=O)N1CC2CCN(c3ccc(-n4ccc(OCc5ccccc5)cc4=O)cn3)C2C1 (single isomer, unassigned) [Example 53a] |
| 0.01 | CC(C)(C)OC(=O)N1CC2CCN(c3ccc(-n4ccc(OCc5ccccc5)cc4=O)cn3)C2C1 (single isomer, unassigned) [Example 53b] |
| 0.119 | O=c1cc(OCc2ccccc2)ccn1-c1ccc(N2C[C@@H]3C[C@H]2CN3)nc1 [68] |
| 0.161 | O=c1cc(OCc2ccccc2)ccn1-c1ccc(N2C[C@@H]3C[C@H]2CN3)nc1 [215] |
| 3.84 | O=c1cc(OCc2ccccc2)ccn1-c1ccc(N2CC[C@@H](O)C2)nc1 [Example 11, 4-(Benzyloxy)-6′-[(3R)-3hydroxypyrrolidin-1-yl]-2H-1,3′-bipyridin-2-one] |
